The results in this text go back to US8846929B2, “Substituted-quinoxaline-type piperidine compounds and the uses thereof” (priority 2007, dated 2014).

By UniProt entry, the sequences of proteins in these tests, tags left out. Where a name states a change or a piece, a line headed by the entry shows the natural chain unless it says otherwise.
UniProt P35372: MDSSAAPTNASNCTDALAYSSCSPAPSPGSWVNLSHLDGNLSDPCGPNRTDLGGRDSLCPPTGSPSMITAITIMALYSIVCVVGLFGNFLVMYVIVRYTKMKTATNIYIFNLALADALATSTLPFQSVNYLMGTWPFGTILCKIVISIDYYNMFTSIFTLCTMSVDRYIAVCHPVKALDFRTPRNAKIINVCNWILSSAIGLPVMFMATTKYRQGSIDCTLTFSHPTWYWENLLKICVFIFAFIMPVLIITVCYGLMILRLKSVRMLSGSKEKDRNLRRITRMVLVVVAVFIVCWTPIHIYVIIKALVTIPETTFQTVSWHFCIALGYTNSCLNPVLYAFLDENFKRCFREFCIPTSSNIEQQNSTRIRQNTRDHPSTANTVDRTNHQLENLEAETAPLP
UniProt P41143: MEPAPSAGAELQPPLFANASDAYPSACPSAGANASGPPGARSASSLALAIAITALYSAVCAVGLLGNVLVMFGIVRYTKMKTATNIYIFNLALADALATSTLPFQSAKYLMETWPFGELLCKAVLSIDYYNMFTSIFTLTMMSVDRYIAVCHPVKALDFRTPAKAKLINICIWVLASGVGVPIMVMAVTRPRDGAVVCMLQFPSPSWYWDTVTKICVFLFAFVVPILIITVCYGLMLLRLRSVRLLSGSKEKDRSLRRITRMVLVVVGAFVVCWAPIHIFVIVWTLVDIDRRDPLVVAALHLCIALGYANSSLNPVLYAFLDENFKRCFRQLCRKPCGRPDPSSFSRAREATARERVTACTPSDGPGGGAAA
UniProt P41145: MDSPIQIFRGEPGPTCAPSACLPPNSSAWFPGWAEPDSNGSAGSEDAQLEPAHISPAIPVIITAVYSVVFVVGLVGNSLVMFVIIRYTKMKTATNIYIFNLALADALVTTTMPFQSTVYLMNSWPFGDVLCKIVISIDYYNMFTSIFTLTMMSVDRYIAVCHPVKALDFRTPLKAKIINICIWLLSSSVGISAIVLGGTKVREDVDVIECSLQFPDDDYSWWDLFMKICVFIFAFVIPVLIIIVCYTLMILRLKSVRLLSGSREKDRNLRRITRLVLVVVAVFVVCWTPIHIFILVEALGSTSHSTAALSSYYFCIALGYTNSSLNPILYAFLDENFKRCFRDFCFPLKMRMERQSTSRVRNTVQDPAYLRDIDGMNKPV
UniProt P41146: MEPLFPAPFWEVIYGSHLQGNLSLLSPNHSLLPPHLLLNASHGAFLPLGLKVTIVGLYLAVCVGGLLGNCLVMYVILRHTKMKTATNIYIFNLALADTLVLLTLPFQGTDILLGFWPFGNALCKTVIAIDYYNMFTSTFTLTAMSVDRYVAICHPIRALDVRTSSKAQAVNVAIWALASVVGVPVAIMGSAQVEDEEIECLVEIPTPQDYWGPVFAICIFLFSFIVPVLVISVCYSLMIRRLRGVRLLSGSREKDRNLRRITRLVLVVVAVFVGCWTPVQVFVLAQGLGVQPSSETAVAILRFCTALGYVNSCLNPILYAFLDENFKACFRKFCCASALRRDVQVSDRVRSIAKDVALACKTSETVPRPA

Assay [1] has as its target T1, μ-opioid receptor (Homo sapiens (Human), UniProt P35372). Kind of assay: In vitro mu-opioid receptor binding assay ([3H]-diprenorphine displacement). The following applies: read-out: Ki [Average ± Std Deviation] Opioid Receptor Mu.
For the next assay, the target named is delta opioid receptor (Homo sapiens (Human), UniProt P41143). Nature of the assay: In vitro delta-opioid receptor binding assay ([3H]-Naltrindole displacement). As to conditions: read-out: Ki [Average ± Std Deviation] Opioid Receptor Delta; recombinant receptor expressed in CHO-K1 cells.
Assay [2] deals with T2, kappa opioid receptor (Homo sapiens (Human), UniProt P41145). Nature of the assay: In vitro kappa-opioid receptor [35S]GTPγS functional assay. It counts as biochemical. As to conditions: mean ± SEM; for pEC50: read-out: GTPγS Opioid Receptor Kappa EC50. (GTPγS resists hydrolysis and so accumulates on activated G proteins.)
The target of assay [3] is T2, kappa opioid receptor. Nature of the assay: In vitro kappa-opioid receptor binding assay ([3H]-U69,593 displacement). As to conditions: read-out: Ki [Average ± Std Deviation] Opioid Receptor Kappa; membranes from recombinant HEK-293 cells.
Assay [4] deals with T1, μ-opioid receptor. Kind of assay: In vitro mu-opioid receptor [35S]GTPγS functional assay. The following applies: mean ± SEM; for pEC50: read-out: GTPγS Opioid Receptor Mu EC50.
In assay [5] the target is T3, human opioid receptor-like (ORL-1) (Homo sapiens (Human), UniProt P41146). Kind of assay: In vitro ORL-1 receptor binding assay ([3H]-nociceptin displacement). As to conditions: read-out: Ki [Average ± Std Deviation] ORL-1; membranes from recombinant HEK-293 cells.
In assay [6] the target is T3, human opioid receptor-like (ORL-1). Kind of assay: In vitro ORL-1 receptor [35S]GTPγS functional assay. The following applies: mean ± SEM; for pEC50: read-out: GTPγS ORL-1 EC50. It is filed as biochemical.

pEC50, pKi: −log10 of the molar value.

One may read the pEC50 as −log10 of the EC50, conventionally taken in molar units. Consider “1-(2-(4-((endo)-8-cyclooctyl-8-azabicyclo[3.2.1]octan-3-yl)-3-oxo-3,4-dihydroquinoxalin-2-ylamino)ethyl)piperidine-4-carboxylic acid”, for which the pKi at μ-opioid receptor [1] was 6.15; at delta opioid receptor, less than 4.70; at kappa opioid receptor [3] it was 6.25; in assay [5] it was 7.46. In addition, the “GTPγS Opioid Receptor Kappa Emax” value at kappa opioid receptor [2] is 9%. Also, the pEC50 at kappa opioid receptor [2] was 5.65; at μ-opioid receptor [4], 5.97; in assay [6] it was 6.47. Besides, the “GTPγS Opioid Receptor Mu Emax” value on μ-opioid receptor [4] stood at 4.2%. In addition, the “GTPγS ORL-1 Emax” value in assay [6] was found to be 38%.

Regarding “1-(4-((endo)-8-cyclooctyl-8-azabicyclo[3.2.1]octan-3-yl)-3-oxo-3,4-dihydroquinoxalin-2-yl)-4-hydroxypiperidine-4-carboxylic acid”, the pKi on μ-opioid receptor [1] is 6.14; at delta opioid receptor it was 4.79; at kappa opioid receptor [3] it was 6.06; in assay [5], 7.79. Moreover, the “GTPγS Opioid Receptor Kappa Emax” value at kappa opioid receptor [2] came out at 3.3%. Besides, the pEC50 on kappa opioid receptor [2] was 5.48; on μ-opioid receptor [4], 5.31. The “GTPγS Opioid Receptor Mu Emax” value on μ-opioid receptor [4] was determined as 11.5%. Moreover, in assay [6], the “GTPγS ORL-1 Emax” value is 36.5%.

As to “2-(4-((endo)-8-cyclooctyl-8-azabicyclo[3.2.1]octan-3-yl)-3-oxo-3 ,4-dihydroquinoxaline-2-carboxamido)acetic acid”, the pKi on μ-opioid receptor [1] is 6.31; on delta opioid receptor, 4.75; on kappa opioid receptor [3], 6.60; in assay [5] it was 7.80. The pEC50 at kappa opioid receptor [2] is 5.36; on μ-opioid receptor [4], 5.87; in assay [6], 6.68. Also, the “GTPγS Opioid Receptor Mu Emax” value on μ-opioid receptor [4] is reported as 12.0 ± 0.8%. In addition, the “GTPγS ORL-1 Emax” value in assay [6] was found to be 102.7 ± 2.7%.

“2-(4-((endo)-8-cyclooctyl-8-azabicyclo[3.2.1]octan-3-yl)-3-oxo-3,4-dihydroquinoxaline-2-carboxamido)-3-(1H-imidazol-4-yl)propanoic acid”: the pKi at μ-opioid receptor [1] was 6.43; on delta opioid receptor it was 4.95; on kappa opioid receptor [3], 6.89; in assay [5], 7.47. Further, at kappa opioid receptor [2], the “GTPγS Opioid Receptor Kappa Emax” value stood at 63 ± 11%. Besides, the pEC50 was 4.33 at kappa opioid receptor [2], 4.44 at μ-opioid receptor [4] and 6.44 in assay [6]. Also, the “GTPγS Opioid Receptor Mu Emax” value at μ-opioid receptor [4] is recorded as 20.0 ± 0.6%. For the same substance, the “GTPγS ORL-1 Emax” value in assay [6] turned out to be 53.3 ± 0.6%.

Regarding “2-(4-((endo)-8-cyclooctyl-8-azabicyclo[3.2.1]octan-3-yl)-3-oxo-3,4-dihydroquinoxaline-2-carboxamido)-3-phenylpropanoic acid”, the values for the pKi (at delta opioid receptor; on kappa opioid receptor [3]; in assay [5]) were 5.76, 7.30 and 7.94, respectively. In addition, at kappa opioid receptor [2], the “GTPγS Opioid Receptor Kappa Emax” value worked out at 13.0 ± 2.3%. In addition, the results for the pEC50 (at kappa opioid receptor [2]; in assay [6]) were 5.43 and 6.70, respectively. Also, the “GTPγS Opioid Receptor Mu Emax” value on μ-opioid receptor [4] amounted to 8.9 ± 0.5%. In addition, the “GTPγS ORL-1 Emax” value in assay [6] is given as 80.0 ± 1.7%.

For the substance “3-((R)-3-aminopyrrolidin-1-yl)-1-((endo)-8-cyclooctyl-8-azabicyclo[3.2.1]octan-3-yl)quinoxalin-2(1H)-one”, the pKi is 6.23 at μ-opioid receptor [1], 4.85 at delta opioid receptor, 7.83 at kappa opioid receptor [3] and 8.80 in assay [5]. Moreover, the “GTPγS Opioid Receptor Kappa Emax” value at kappa opioid receptor [2] is given as 15.3 ± 4.1%. Also, the pEC50 was 4.48 at kappa opioid receptor [2], 5.31 at μ-opioid receptor [4] and 7.77 in assay [6]. Besides, the “GTPγS Opioid Receptor Mu Emax” value at μ-opioid receptor [4] was found to be 9.7 ± 0.7%. Also, the “GTPγS ORL-1 Emax” value in assay [6] is 105.7 ± 5.0%.

As for “4-((endo)-8-cyclodecyl-8-azabicyclo[3.2.1]octan-3-yl)-3-oxo-3,4-dihydroquinoxaline-2-carboxylic acid”, the pKi was 6.15 at μ-opioid receptor [1], 5.79 at delta opioid receptor, 6.37 at kappa opioid receptor [3] and 8.60 in assay [5]. Also, the “GTPγS Opioid Receptor Kappa Emax” value on kappa opioid receptor [2] was 20.0%. Further, the pEC50 is 5.90 at kappa opioid receptor [2], 5.24 at μ-opioid receptor [4] and 7.55 in assay [6]. Also, on μ-opioid receptor [4], the “GTPγS Opioid Receptor Mu Emax” value is 14.7 ± 1.5%. For the same substance, the “GTPγS ORL-1 Emax” value in assay [6] turned out to be 106.3 ± 0.9%.

As for “4-((endo)-8-cyclooctyl-8-azabicyclo[3.2.1]octan-3-yl)-3-oxo-N-(6-oxo-1,6-dihydropyridin-3-yl)-3,4-dihydroquinoxaline-2-carboxamide”, the pKi on μ-opioid receptor [1] is 6.43; on delta opioid receptor it was 4.76; on kappa opioid receptor [3], 6.79; in assay [5], 8.12. Also, on kappa opioid receptor [2], the “GTPγS Opioid Receptor Kappa Emax” value amounted to 8.3 ± 0.9%. Also, the pEC50 on kappa opioid receptor [2] is 5.86; on μ-opioid receptor [4] it was 5.29; in assay [6], 7.17. On μ-opioid receptor [4], the “GTPγS Opioid Receptor Mu Emax” value was 8.7 ± 0.3%. The “GTPγS ORL-1 Emax” value in assay [6] stood at 87.3 ± 3.9%.

On to “4-((endo)-8-cyclooctyl-8-azabicyclo[3.2.1]octan-3-yl)-N-hydroxy-3-oxo-3,4-dihydroquinoxaline-2-carboxamide”, for which the pKi is less than 4.00 at delta opioid receptor, 6.32 at kappa opioid receptor [3] and 8.57 in assay [5]. Moreover, at kappa opioid receptor [2], the “GTPγS Opioid Receptor Kappa Emax” value is reported as 17%. Moreover, the pEC50 was 5.61 at kappa opioid receptor [2] and 7.50 in assay [6]. On μ-opioid receptor [4], the “GTPγS Opioid Receptor Mu Emax” value worked out at 12.5 ± 1.4%. Also, the “GTPγS ORL-1 Emax” value in assay [6] was 127.0 ± 5.3%.

Take “4-((exo)-8-cyclooctyl-8-azabicyclo[3.2.1]octan-3-yl)-N-(6-methoxypyridin-3-yl)-3-oxo-3,4-dihydroquinoxaline-2-carboxamide”: the pKi is 5.57 on μ-opioid receptor [1], 4.86 on delta opioid receptor, 6.13 on kappa opioid receptor [3] and 6.89 in assay [5]. For the same substance, the “GTPγS Opioid Receptor Kappa Emax” value at kappa opioid receptor [2] turned out to be 9.0 ± 1.2%. The pEC50 on kappa opioid receptor [2] is 5.42; in assay [6] it was 5.63. Moreover, the “GTPγS ORL-1 Emax” value in assay [6] is on record as 110.5 ± 6.5%.

“4-acetamido-1-(4-((endo)-8-cyclooctyl-8-azabicyclo[3.2.1]octan-3-yl)-3-oxo-3,4-dihydroquinoxalin-2-yl)piperidine-4-carboxylic acid”: the pKi on μ-opioid receptor [1] was 5.41; at delta opioid receptor, less than 4.70; on kappa opioid receptor [3], 6.59; in assay [5], 6.80. Further, the “GTPγS Opioid Receptor Kappa Emax” value on kappa opioid receptor [2] is reported as 0%. In addition, the pEC50 is less than 4.70 at kappa opioid receptor [2] and 5.75 in assay [6]. The “GTPγS ORL-1 Emax” value in assay [6] is listed as 46.7 ± 1.9%.

On to “4-amino-1-(4-((endo)-8-cyclooctyl-8-azabicyclo[3.2.1]octan-3-yl)-3-oxo-3,4-dihydroquinoxalin-2-yl)piperidine-4-carboxylic acid”, for which the pKi at μ-opioid receptor [1] was 5.21; on delta opioid receptor it was less than 4.70; on kappa opioid receptor [3], 6.65; in assay [5] it was 7.95. The “GTPγS Opioid Receptor Kappa Emax” value at kappa opioid receptor [2] is listed as 13 ± 2.1%. Moreover, the pEC50 on kappa opioid receptor [2] is 5.33; in assay [6], 7.03. Besides, the “GTPγS ORL-1 Emax” value in assay [6] was 34.5 ± 1.6%.

For “(2R)-2-(4-((endo)-8-cyclooctyl-8-azabicyclo[3.2.1]octan-3-yl)-3-oxo-3,4-dihydroquinoxalin-2-ylamino)-3-hydroxypropanoic acid”, the values for the pKi (on μ-opioid receptor [1]; at delta opioid receptor; in assay [5]) were 6.11, 4.24 and 7.62, respectively. At kappa opioid receptor [2], the “GTPγS Opioid Receptor Kappa Emax” value is 18 ± 2%. Also, the “GTPγS Opioid Receptor Mu Emax” value on μ-opioid receptor [4] turned out to be 93%. In addition, the pEC50 at μ-opioid receptor [4] is 5.97; in assay [6] it was 7.36. Besides, in assay [6], the “GTPγS ORL-1 Emax” value is given as 35.3 ± 2.3%.

For “(5)-2-(4-((endo)-8-cyclooctyl-8-azabicyclo[3.2.1]octan-3-yl)-3-oxo-3,4-dihydroquinoxalin-2-ylamino)-2-phenylacetic acid”, the pKi at μ-opioid receptor [1] is 5.89; at delta opioid receptor, less than 4.70; on kappa opioid receptor [3], 6.46; in assay [5] it was 7.40. Moreover, the “GTPγS Opioid Receptor Kappa Emax” value at kappa opioid receptor [2] was 6.0 ± 1.5%. Besides, the pEC50 on kappa opioid receptor [2] is 5.71; in assay [6], 6.02. For the same substance, the “GTPγS ORL-1 Emax” value in assay [6] is recorded as 60%.

With “endo-4-(8-adamantan-1-yl-8-aza-bicyclo[3.2.1]oct-3-yl)-3-oxo-3,4-dihydro-quinoxaline-2-carboxylic acid hydrochloride”, at μ-opioid receptor [4], the “GTPγS Opioid Receptor Mu Emax” value was 23 ± 1%. In assay [5], the pKi was 7.92. In assay [6], the “GTPγS ORL-1 Emax” value is on record as 59.7 ± 0.3% and the pEC50 is 7.39.

Turning to “endo-8-aza-bicyclo[3.2.1]oct-3-yl]-3-oxo-3,4-dihydro-quinoxaline-2-carboxylic acid”, the pKi is 6.17 on μ-opioid receptor [1], less than 4.70 at delta opioid receptor, 5.84 at kappa opioid receptor [3] and 8.39 in assay [5]. Further, the “GTPγS Opioid Receptor Mu Emax” value at μ-opioid receptor [4] worked out at 6.6 ± 0.7%. The pEC50 at μ-opioid receptor [4] is 6.40; in assay [6], 7.47. Besides, the “GTPγS ORL-1 Emax” value in assay [6] turned out to be 80 ± 2.2%.

With “ethyl 4-((endo)-8-cyclooctyl-8-azabicyclo[3.2.1]octan-3-yl)-3-oxo-3,4-dihydroquinoxaline-2-carboxylate”, the results for the pKi (at μ-opioid receptor [1]; on kappa opioid receptor [3]; in assay [5]) were 6.34, 7.18 and 7.65, respectively. Moreover, the “GTPγS Opioid Receptor Kappa Emax” value on kappa opioid receptor [2] is given as 1.0 ± 2.0%. In addition, the values for the pEC50 (on kappa opioid receptor [2]; at μ-opioid receptor [4]; in assay [6]) were 3.18, 6.19 and 6.68, respectively. Besides, the “GTPγS Opioid Receptor Mu Emax” value at μ-opioid receptor [4] was found to be 3.0 ± 0.4%. The “GTPγS ORL-1 Emax” value in assay [6] was found to be 58.3 ± 1.6%.
